The source of these data is patent US6506766B1 (Abbott Laboratories, priority 1998, dated 2003).

The target in this assay is T1, human glucocorticoid receptor-α [GRX] isoform (Homo sapiens, UniProt P04150).
T1 construct: host or cells: insect SF21 cells (baculovirus)
T1 sequence (P04150 1-777): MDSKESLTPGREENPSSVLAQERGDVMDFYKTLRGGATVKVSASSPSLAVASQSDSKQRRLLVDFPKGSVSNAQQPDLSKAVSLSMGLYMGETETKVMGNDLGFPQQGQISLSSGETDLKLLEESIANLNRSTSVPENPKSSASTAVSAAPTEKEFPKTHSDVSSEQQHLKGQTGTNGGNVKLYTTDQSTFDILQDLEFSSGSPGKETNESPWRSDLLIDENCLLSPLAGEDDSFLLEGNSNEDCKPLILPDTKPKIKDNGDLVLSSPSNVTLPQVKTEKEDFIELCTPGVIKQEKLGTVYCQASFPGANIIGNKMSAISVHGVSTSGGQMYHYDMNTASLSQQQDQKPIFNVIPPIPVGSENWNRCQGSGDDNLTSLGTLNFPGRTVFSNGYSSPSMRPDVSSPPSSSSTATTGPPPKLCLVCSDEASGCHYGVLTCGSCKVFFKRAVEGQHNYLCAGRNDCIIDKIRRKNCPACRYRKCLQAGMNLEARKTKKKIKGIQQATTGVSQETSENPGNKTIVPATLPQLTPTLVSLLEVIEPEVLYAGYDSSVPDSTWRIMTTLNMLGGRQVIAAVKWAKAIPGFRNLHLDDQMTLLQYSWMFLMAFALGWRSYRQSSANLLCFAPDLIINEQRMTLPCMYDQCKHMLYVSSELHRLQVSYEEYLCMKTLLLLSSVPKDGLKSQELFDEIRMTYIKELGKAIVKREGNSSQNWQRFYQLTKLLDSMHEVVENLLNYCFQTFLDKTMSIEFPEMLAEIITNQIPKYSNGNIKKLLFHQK
The assay is described as follows: Radioligand binding with human glucocorticoid receptor cytosol ([3H]-dexamethasone competition). The note with it: GRX cytosol expressed in insect SF21 cells, [3H]-Dex ~0.9 nM, 4° C. overnight; Ki by Cheng-Prusoff, KL ~1.5 nM; read-out: Ki (nM) GR.
Usually Ki stands for the dissociation constant of the complex between target and ligand, obtained from inhibition or displacement. As to `COc1cccc2c1-c1ccc3c(c1C(=Cc1ccccc1)O2)C(C)=CC(C)(C)N3` (mixture of isomers) [Example 18, 2,5-Dihydro-10-methoxy-2,2,4-trimethyl-5-(phenylmethylene)-1H-[1]benzopyrano[3,4-f]quinoline], the Ki was found to be 10.5 nM.
As for `C=CCC1Oc2ccc(OC(=O)CCC(=O)N(C)C)c(Cl)c2-c2ccc3c(c21)C(C)=CC(C)(C)N3` (racemic) [Example 421, (+/−)2,5-Dihydro-9-(4-N,N-dimethylamino-4-oxo-butanoyloxy)-10-chloro-2,2,4-trimethyl-5-allyl-1H-[1]benzopyrano[3,4-f]quinoline], the Ki is 0.66 nM.
The figure for `CCC1([C@@H]2Oc3ccc(O)c(OC)c3-c3ccc4c(c32)C(C)=CC(C)(C)N4)CC=CCC1` (single isomer, unassigned; (-)) [Example 263] is 2.2 nM; for `COc1cccc2c1-c1ccc3c(c1C(CC(C)=O)O2)C(C)=CC(C)(C)N3` (centres unmarked) [Example 45, 1-(2,5-Dihydro-10-methoxy-2,2,4-trimethyl-1H-[1]benzopyrano[3,4-f]quinolin-5-yl)-2-propanone] it is 15 nM.
In the case of `COc1cccc2c1-c1ccc3c(c1C(CCCO)O2)C(C)=CC(C)(C)N3` (centres unmarked) [Example 69, 2,5-Dihydro-10-methoxy-2,2,4-trimethyl-1H-[1]benzopyrano[3,4-f]quinoline-5-propanol], the inhibition constant (Ki) was 15 nM.
In the case of `C#CCOc1cccc(C2Oc3cccc(OC)c3-c3ccc4c(c32)C(C)=CC(C)(C)N4)c1` (centres unmarked) [Example 92, 2,5-Dihydro-10-methoxy-2,2,4-trimethyl-5-[3-(2-propynyloxy)phenyl]-1H-[1]benzopyrano[3,4-f]quinoline], the Ki turned out to be 12 nM.
For the molecule `CNc1cc(C)cc(C2Oc3cccc(OC)c3-c3ccc4c(c32)C(C)=CC(C)(C)N4)c1` (centres unmarked) [Example 114, 3-(2,5-Dihydro-10-methoxy-2,2,4-trimethyl-1H-[1]benzopyrano[3,4-f]quinolin-5-methyl)-5,N-dimethylbenzenamine], the inhibition constant Ki was determined as 12 nM.
Regarding `C=CCNc1cccc(C2Oc3cccc(OC)c3-c3ccc4c(c32)C(C)=CC(C)(C)N4)c1` (centres unmarked) [Example 117, 3-(2,5-Dihydro-10-methoxy-2,2,4-trimethyl-1H-[1]benzopyrano[3,4-f]quinolin-5-yl)-N-(2-propenyl)benzenamine], the Ki amounted to 12 nM.
As to `C=C(Br)CC1Oc2cccc(OC)c2-c2ccc3c(c21)C(C)=CC(C)(C)N3` (centres unmarked) [Example 147, 2,5-Dihydro-10-methoxy-5-(2-bromo-3-propenyl)-2,2,4-trimethyl-1H-[1]benzopyrano[3,4-f]quinoline], the Ki is 15 nM.
The same measure for `C=C(CC1Oc2cccc(OC)c2-c2ccc3c(c21)C(C)=CC(C)(C)N3)C(=O)OC` (centres unmarked) [Example 173, 2,5-Dihydro-10-methoxy-5-(2-carbomethoxy-3-propenyl)-2,2,4-trimethyl-1H-[1]benzopyrano[3,4-f]quinoline]: 32 nM.
The same measure for `COc1cccc2c1-c1ccc3c(c1C(CC=C1CCCCCC1)O2)C(C)=CC(C)(C)N3` (centres unmarked) [Example 189, 2,5-Dihydro-10-methoxy-5-(2-cycloheptylidenylethyl)-2,2,4-trimethyl-1H-[1]benzopyrano[3,4-f]quinoline]: 6.4 nM; for `CC1=CC(C)(C)Nc2ccc3c(c21)[C@H]([C@@H]1C=CCC1)Oc1ccc(O)c(Cl)c1-3` [Example 221, (−)2,5(S)-Dihydro-9-hydroxy-10-chloro-2,2,4-trimethyl-5-(3S-cyclopentenyl)-1H-[1]benzopyrano[3,4-f]quinoline]: 0.66 nM; for `CC1=CC(C)(C)Nc2ccc3c(c21)C(c1ccccc1)Oc1ccc2c(c1-3)OCO2` (centres unmarked) [Example 227, 9-10-Methylenedioxy-5-phenyl-2,2,4-trimethyl-1H-2,5-dihydro-[1]benzopyrano[3,4-f]quinoline]: 8.4 nM.
The same measure for `COc1c(O)ccc2c1-c1ccc3c(c1C(c1ccc(F)c(F)c1)O2)C(C)=CC(C)(C)N3` (centres unmarked) [Example 254, 2,5-Dihydro-9-hydroxy-10-methoxy-2,2,4-trimethyl-5-(3,4-difluorophenyl)-1H-[1]benzopyrano[3,4-f]quinoline]: 2.2 nM.
